Values quoted from earlier work, collected in PMC7280195, “Simple ammonium salts acting on sigma-1 receptors yield potential treatments for cancer and depression” (Scientific Reports, 2020).

Molecular target: sigma-1 receptors
Conditions: MDA-MB-468 cells; cited from earlier work

## CC(C)=CCN1CC[C@]2(C)c3cc(O)ccc3C[C@H]1[C@H]2C [[^3H] (+) pentazocine, (1 S,9 S,13 S)-1,13-dimethyl-10-(3-methylbut-2-en-1-yl)-10-azatricyclotrideca-2,4,6-trien-4-ol]
  Kd: 17 nM
  pKd ± SEM: 7.8 ± 0.6
